# Antibody variant affinities, Ab-14 light chain, assay 1

From the AlphaSeq antibody data of Engelhart et al. 2022 (doi:10.1038/s41597-022-01779-4), copy in the FLAb collection.

All variants were tested on one target, the spike HR2 peptide PDVDLGDISGINAS (SARS-CoV-2).

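Phage display of a naive human antibody library on the peptide gave the parent. AAYL50 was designed without a model: most single CDR substitutions and a random sample of double and triple ones. The assay is AlphaSeq: two haploid yeast populations carry antibody and antigen on their surface. After mating in shaken culture at 30 °C for 16 h, diploids were selected and their barcode pairs sequenced. The ratio of observed to expected reads was calibrated, replicate by replicate, on BCL2-family standards whose Kd was known from biolayer interferometry. Mating was done three times.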

The variants keep the heavy chain, the linker and the frameworks of Ab-14 (scFv order VH, a 15-residue (Gly4Ser)3 linker, VL).
VH: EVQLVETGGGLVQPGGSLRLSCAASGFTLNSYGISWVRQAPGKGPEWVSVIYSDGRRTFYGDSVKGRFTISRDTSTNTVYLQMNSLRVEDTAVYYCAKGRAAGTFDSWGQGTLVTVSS
VL: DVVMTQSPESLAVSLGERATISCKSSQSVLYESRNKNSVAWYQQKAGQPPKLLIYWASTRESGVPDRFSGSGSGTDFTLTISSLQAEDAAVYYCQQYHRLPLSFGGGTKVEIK

Positions count from residue 1 of the parent VL; N35E puts E in place of N.
Kd is apparent (estimated from mating counts) and averaged on the log scale over replicates with a signal. Smaller is tighter.
"no signal" marks a missing value. The strain was present, yet no cells mated with the target were sequenced in any replicate, which points to weak or no binding.
The list is sorted by this average, lowest first, undetected variants last.

changes,Kd,seen in
N35E/W56D/L102T,1.1 nM,3/3
L100N/P101Q/S103C,4.5 nM,3/3
Q27H/K36M/V39I,5.5 nM,3/3
S25I/L30H/H98F,6.2 nM,3/3
S25Y/Y31K/S62T,6.5 nM,3/3
Y31N/S33P/R60I,7.0 nM,3/3
V29T/H98Y,7.4 nM,3/3
S28V/E32A/W56S,8.7 nM,3/3
K24I/S33Q/W56N,8.7 nM,3/3
K24H/N35K/H98M,9.6 nM,3/3
Y31T/E32D/S62G,10 nM,3/3
S28N/V29A/H98V,14 nM,3/3
V29W/N37R/R99S,16 nM,3/3
Y31T/N37I/A57E,25 nM,3/3
Q27T/R34H/S58G,28 nM,3/3
N35S/L100Q/L102M,29 nM,3/3
Q27N/K36T/T59R,29 nM,3/3
Y31N/S33N/T59M,31 nM,3/3
K24S/Q96R/L102F,33 nM,3/3
V29R/W56C/Q96G,36 nM,3/3
S25F/N35T/P101Y,47 nM,3/3
N37M/H98Y,53 nM,3/3
S26T/S38Q/H98T,58 nM,3/3
S25W/P101C,59 nM,3/3
K24Q/V29C/E32L,64 nM,3/3
S26W/L30P/R34L,99 nM,3/3
S33C/K36V/E61S,100 nM,1/3
Y31W/V39L/S62W,130 nM,3/3
V29G/L30Q/N35H,160 nM,3/3
S28W/W56Y/Y97K,200 nM,3/3
Q27N/N37S/H98T,290 nM,3/3
E32Q/T59F/L100F,370 nM,3/3
S25I/V29R/Y97T,870 nM,3/3
Y31W/V39L/Y97V,1.2 µM,3/3
Q27F/A57Y/R60M,1.9 µM,3/3
N35V/K36N/S58M,2.5 µM,2/3

The remaining entries, values ahead:

Kd,seen in,changes
2.8 µM,3/3,E32N/Q95F
3.7 µM,1/3,S28V/S33V/L100T
4.6 µM,3/3,S28I/T59Y/Q96T
12 µM,1/3,S62V/P101Q/L102W
16 µM,1/3,S26Q/S33Y/S62Q
16 µM,3/3,S25C/L100W/S103G
18 µM,1/3,S28D/E32K/Y97S
24 µM,1/3,K36A/T59L/Q96R
26 µM,2/3,R34S/K36H/V39N
28 µM,2/3,S28T/A40E/R99G
39 µM,1/3,R34P/A57M/L100S
64 µM,2/3,S28F/K36C/A57R
72 µM,1/3,S28D/S38C/L100P
81 µM,2/3,S28Y/Q96V/L102I
120 µM,1/3,A57R/R60L/Q96P
160 µM,2/3,S26L/K36V/W56I
no signal,0/3,S28Y/R99D/P101L
no signal,0/3,S25K/S33G/L102N
no signal,0/3,S26G/A40D/R99L
no signal,0/3,R34I/K36I/S38T
no signal,0/3,N35D/S38K/L100A
no signal,0/3,S25Y/V29L/T59S
no signal,0/3,S28P/W56T/A57N
no signal,0/3,S25R/S28M/Q95G
no signal,0/3,S25V/V39D/T59V
no signal,0/3,Q27Y/W56H/S62C
no signal,0/3,S28C/S58G/L102A
no signal,0/3,S28Q/N37L/S38Q
no signal,0/3,Q27P/R60I/P101V
no signal,0/3,V39E/T59H/Y97C
no signal,0/3,L30S/A57C/L100H
no signal,0/3,L30K/Y97K/H98Q
no signal,0/3,S28E/A40F/L100I
no signal,0/3,N35I/N37V/P101M
no signal,0/3,N37I/A57L/H98E
no signal,0/3,W56T/T59W/L102D

The last 8 entries again:

changes,Kd,seen in
Q27P/R60I/P101V,no signal,0/3
V39E/T59H/Y97C,no signal,0/3
L30S/A57C/L100H,no signal,0/3
L30K/Y97K/H98Q,no signal,0/3
S28E/A40F/L100I,no signal,0/3
N35I/N37V/P101M,no signal,0/3
N37I/A57L/H98E,no signal,0/3
W56T/T59W/L102D,no signal,0/3

Nonspecific signal, from three strains lacking the peptide, appeared in 18% of pairings of library AAYL50, centred on 15 µM (5% of these signals below 970 nM); values are not corrected for it.
Parent in this assay: reference entry 4.4 nM, copy in this library 48 nM.